Values quoted from earlier work, collected in PMC11659931.

Molecular target: IgE (Homo sapiens) (UniProt P01854)

Kd: 15 nM
Substance: omalizumab Fab
